As a reminder, the IC50 is the point on the concentration scale where inhibition reaches its midpoint. What is called Kd is the free concentration of one partner at which half of the binding sites on the other are occupied at equilibrium, for simple one-to-one binding. Read a low Kd as tighter binding.

The target in experiment [1] is T1, Myeloperoxidase (Homo sapiens, UniProt P05164).
T1 sequence (P05164 whole entry): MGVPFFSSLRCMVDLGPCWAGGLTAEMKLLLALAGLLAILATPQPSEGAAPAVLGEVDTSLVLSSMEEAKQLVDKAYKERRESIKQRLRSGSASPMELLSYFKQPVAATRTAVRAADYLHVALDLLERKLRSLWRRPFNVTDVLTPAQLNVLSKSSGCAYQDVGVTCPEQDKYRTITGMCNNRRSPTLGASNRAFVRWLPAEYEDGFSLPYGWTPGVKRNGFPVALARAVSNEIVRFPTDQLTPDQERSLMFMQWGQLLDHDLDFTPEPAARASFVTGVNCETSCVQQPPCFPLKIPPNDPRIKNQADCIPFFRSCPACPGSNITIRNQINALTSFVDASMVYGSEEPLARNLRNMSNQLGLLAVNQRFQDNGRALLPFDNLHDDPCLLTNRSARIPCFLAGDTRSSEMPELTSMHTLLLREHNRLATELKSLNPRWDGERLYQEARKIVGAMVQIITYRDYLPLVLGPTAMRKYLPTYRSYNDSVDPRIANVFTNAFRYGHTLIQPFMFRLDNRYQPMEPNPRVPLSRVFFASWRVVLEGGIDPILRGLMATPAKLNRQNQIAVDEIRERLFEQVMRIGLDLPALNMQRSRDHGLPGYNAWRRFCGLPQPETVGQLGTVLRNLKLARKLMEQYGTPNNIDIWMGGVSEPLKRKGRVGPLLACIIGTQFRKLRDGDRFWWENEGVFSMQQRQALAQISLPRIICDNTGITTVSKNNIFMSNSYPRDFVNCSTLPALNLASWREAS
In words: Inhibition of MPO in human HL-60 cells measured after 15 mins in presence of H2O2 by chemiluminescence assay. The class given is cell-based.

The target of experiment [2] is T1, Myeloperoxidase. In words: Displacement of benzhydroxamic acid from native state MPO (unknown origin) by 1D NMR reporter assay.

Regarding `COc1ccc(Cl)cc1-c1cc(=O)[nH]c(=S)n1CC(N)=O` [PF-06282999], the concentration for half-maximal inhibition (IC50) in experiment [1] worked out at 35.5 µM.

Regarding `NCc1cc(Cl)ccc1Cn1c(=S)[nH]c(=O)c2[nH]ccc21`, binding in experiment [2] was characterised by a dissociation constant (Kd) of 3.98 µM. That is a single-digit micromolar value.

These data come from ChEMBL document CHEMBL5126625, “Discovery of AZD4831, a Mechanism-Based Irreversible Inhibitor of Myeloperoxidase, As a Potential Treatment for Heart Failure with Preserved Ejection Fraction” (J Med Chem, 2022).
